Experimental data: ChEMBL document CHEMBL1139472, “Synthesis of N-{4-[(2,4-diamino-5-methyl-4,7-dihydro-3H-pyrrolo[2,3-d]pyrimidin-6-yl)thio]benzoyl}-L-glutamic acid and N-{4-[(2-amino-4-oxo-5-methyl-4,7-dihydro-3H-pyrrolo[2,3-d]pyrimidin-6-yl)thio]benzoyl}-L-glutamic acid as dual inhibitors of dihydrofolate reductase and thymidylate synthase and …” (J Med Chem, 2005)

Tests used:
[1] = target: T1, Bifunctional dihydrofolate reductase-thymidylate synthase (Toxoplasma gondii, UniProt Q07422)
T1 sequence (Q07422 whole entry): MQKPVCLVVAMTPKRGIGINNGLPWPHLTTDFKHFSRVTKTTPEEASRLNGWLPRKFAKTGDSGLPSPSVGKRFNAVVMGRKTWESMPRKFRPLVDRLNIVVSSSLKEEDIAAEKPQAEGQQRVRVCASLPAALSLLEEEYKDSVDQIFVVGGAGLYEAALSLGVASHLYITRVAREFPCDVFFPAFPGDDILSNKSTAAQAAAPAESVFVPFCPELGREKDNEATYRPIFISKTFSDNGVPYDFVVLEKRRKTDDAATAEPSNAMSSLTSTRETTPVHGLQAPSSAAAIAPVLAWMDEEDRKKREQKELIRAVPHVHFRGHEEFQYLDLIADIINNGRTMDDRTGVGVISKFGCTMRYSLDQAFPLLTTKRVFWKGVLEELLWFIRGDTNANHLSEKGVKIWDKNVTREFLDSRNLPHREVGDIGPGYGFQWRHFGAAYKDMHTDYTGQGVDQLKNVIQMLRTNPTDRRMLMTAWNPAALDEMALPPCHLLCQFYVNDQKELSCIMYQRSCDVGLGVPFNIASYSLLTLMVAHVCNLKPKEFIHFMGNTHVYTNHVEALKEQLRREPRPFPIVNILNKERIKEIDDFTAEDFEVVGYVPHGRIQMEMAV

[2] = target: T1, Bifunctional dihydrofolate reductase-thymidylate synthase; remark: listed apart in the source

SMILES: Nc1nc2[nH]cc(CCc3ccc(C(=O)N[C@@H](CCC(=O)O)C(=O)O)cc3)c2c(=O)[nH]1 [PEMETREXED]
- IC50 [1]: 2800 nM
- IC50 [2]: 460 nM

SMILES: Cc1nc2ccc(CN(C)c3ccc(C(=O)N[C@@H](CCC(=O)O)C(=O)O)s3)cc2c(=O)[nH]1 [RALTITREXED]
- IC50 [2]: 2300 nM
